In patent US6258839A, “Isolation of naturally occuring isoflavanone and some clinical uses thereof” (priority 1997, dated 2001):

Test system: HIV-1 infected cells (p24 production)
Assay: extended time course assay, p24 and XTT

COc1c(O)cc(C2COc3cc(O)cc(O)c3C2=O)cc1CC=C(C)C (racemic) [PMZ-1]
effectiveness when added after DNA synthesis (added after infection): effective even after DNA synthesis has occurred
XTT cytoprotection and inhibition of p24 production (added after reverse transcriptase has been completed): observed
